The target of this assay is recombinant human G9a protein (Homo sapiens, UniProt Q96KQ7). Description: G9a inhibitory activity test (ALPHA). The following applies: read-out: Inhibitory activity (G9a IC50 value), biotinylated histone H3 peptide (1-21), SAM. As for the experimental part:
The G9a inhibitory activity of each compound was evaluated by measuring the enzymatic activity of G9a by amplified luminescence proximity homogeneous assay (ALPHA). First, 7.5 μL of a dilution of recombinant human G9a protein (BPS Bioscience Inc., #51001) diluted to 0.05 to 0.1 nM with a Tris buffer solution (50 mM Tris-HCl [pH 9.0], 50 mM NaCl, 0.01% Tween-20, 1 mM DTT), and 0.5 μL of the test compound were added to each well of a 384-well microplate (AlphaPlate-384 Shallow Well, PerkinElmer, Inc., #6008359), mixed by vortex, and incubated at room temperature for 10 minutes. 500 nM biotinylated histone H3 peptide (1-21) (AnaSpec Inc., #61702) and 150 μM SAM (Sigma-Aldrich Co. LLC, #A7007) were mixed at 1:1 in advance, and 2 μL of the mixture was added to each well, mixed by vortex, and then incubated at room temperature for 1 hour. AlphaLISA anti-H3K9me2 acceptor beads (PerkinElmer, Inc., #AL117C) and AlphaScreen streptavidin donor beads (PerkinElmer, Inc., #6760002B) were each diluted with an epigenetic buffer (PerkinElmer, Inc., AlphaLISA Epigenetics Buffer Kit #AL008C) to a final concentration of […] after addition. These dilutions were added to the reaction solution in the dark and incubated at room temperature for 1 hour in the dark. Then, measurement was performed using the EnSpire Alpha plate reader (PerkinElmer, Inc., Waltham, Mass., USA). […]

Sequences of proteins named here, by UniProt entry; tags and fusion partners are left off. Residues count along the entry.
UniProt Q96KQ7, 785-1210 limits assumed: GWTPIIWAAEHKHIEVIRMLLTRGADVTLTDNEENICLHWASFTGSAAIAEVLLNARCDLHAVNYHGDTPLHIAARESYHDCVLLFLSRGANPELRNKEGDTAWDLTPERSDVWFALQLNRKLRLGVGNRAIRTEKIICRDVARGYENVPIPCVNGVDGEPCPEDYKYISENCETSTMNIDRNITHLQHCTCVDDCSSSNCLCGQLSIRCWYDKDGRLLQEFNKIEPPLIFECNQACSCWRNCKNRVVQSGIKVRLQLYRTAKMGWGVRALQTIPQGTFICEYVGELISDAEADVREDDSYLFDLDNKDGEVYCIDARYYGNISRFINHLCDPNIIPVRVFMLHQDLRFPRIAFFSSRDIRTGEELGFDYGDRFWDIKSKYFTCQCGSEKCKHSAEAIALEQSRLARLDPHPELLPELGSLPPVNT

We go through one compound from US20230127046A1, “G9a INHIBITOR” (RIKEN, priority 2019, published 2023).

In general, IC50 refers to the midpoint of a concentration-inhibition curve.

On to `CCCCC(NC(=O)c1[nH]c2c(c1C)C(=O)CC(C)(C)C2)C(=O)Nc1ccc(OCCN(C)C)nc1` (stereo not shown), for which the IC50 lay in the range of 50 to 200 nM.
